Measured values from article PMC7850479, “A drug repurposing screen identifies hepatitis C antivirals as inhibitors of the SARS-CoV2 main protease” (PLoS ONE, 2021).

Key:
SARS-CoV-2 Mpro [1] = biological target: T1, SARS-CoV-2 Mpro (Severe acute respiratory syndrome coronavirus 2, UniProt P0DTD1); format: biochemical
SARS-CoV-2 Mpro [2] = biological target: T1, SARS-CoV-2 Mpro; experiment: Dose validation assay (10-point dose-response), fluorescent Mpro protease assay with Ac-Abu-Tle-Leu-Gln-AFC; format: biochemical; conditions: 80nM Mpro, 32μM Ac-Abu-Tle-Leu-Gln-AFC, 10 concentrations 150 μM to 7.6 nM, n = 3, 4-parameter nonlinear regression

| SMILES | Z10 (SARS-CoV-2 Mpro [1]) | IC50 (SARS-CoV-2 Mpro [2]) [nM] |
| --- | --- | --- |
| NCCCC[C@H](NC(=O)[C@@H]1CCCN1C(=O)[C@@H]1CSSC[C@H](N)C(=O)N[C@@H](Cc2ccc(O)cc2)C(=O)N[C@@H](Cc2ccccc2)C(=O)N[C@@H](CCC(N)=O)C(=O)N[C@@H](CC(N)=O)C(=O)N1)C(=O)NCC(N)=O [lypressin] | 0.2173 |  |
| CCCC[C@H](NC(=O)[C@@H]1[C@@H]2[C@H](CN1C(=O)[C@@H](NC(=O)NC1(CS(=O)(=O)C(C)(C)C)CCCCC1)C(C)(C)C)C2(C)C)C(=O)C(=O)NC1CC1 [narlaprevir] |  | 1100 |
